In PMC4655192 (Neuropharmacology, 2015):
Several values for one entry are separate records, joined by “and”; a condition that tells them apart may be missing. Equal entries are not always repeated.

What was measured:
[1] = test system: KOR-KO striatal membranes
[2] = test system: MOR-KO striatal membranes

NC(N)=Nc1ccc2[nH]c3c(c2c1)C[C@@]1(O)[C@H]2Cc4ccc(O)c5c4[C@@]1(CCN2CC1CC1)[C@H]3O5 [5′-GNTI, 5′-guanidinonaltrindole] was tested, and the IMAX % [1] was 120 ± 3% and 100 ± 13%, the IMAX % [2] was 93 ± 10% and 87 ±10% and the IMAX % (WT striatal membranes) was 96 ± 5% and 100 ± 9%.

Oc1ccc2c3c1O[C@H]1c4[nH]c5c(c4C[C@@]4(O)[C@@H](C2)N(CC2CC2)CC[C@]314)C[C@@]1(O)[C@H]2Cc3ccc(O)c4c3[C@@]1(CCN2CC1CC1)[C@H]5O4 [NorBNI, Norbinaltorphimine] gave an IC50 ([1]; vs 1 μM DynB(1-9), KOR-KO) of 0.0453 ± 0.0101 µM and an IMAX % [2] of 99 ± 5%.
